Literature values, collected in patent publication EP4759820A1, “METHOD FOR PRODUCING PEPTIDE COMPOUND USING STAND-ALONE-TYPE CONDENSING AGENT” (CHUGAI SEIYAKU KABUSHIKI KAISHA, priority 2023, dated 2025).

settings: representative additives; water as solvent, 25°C; literature reference given with each value

Question: For `O=[N+]([O-])C(=NO)[N+](=O)[O-]`, which pKa is on record?
Answer: Its pKa is 2.7.

Question: For Hydroxypicolinimidoyl cyanide, which pKa is on record?
Answer: Its pKa is 8.2.

Question: For “N-Hyrdroxy-2-morpholino-2-oxoacetimidoyl cyanide”, which pKa is on record?
Answer: The pKa was 6.1.

Question: Which pKa does the source give for `On1ncnn1` here?
Answer: Its pKa is 8.2.

This is a selection: effects in other tests are not listed, and their absence says nothing.
